Test: Liposome leakage, sedimentation method
Assay type: physicochemical
Conditions: 0.5 M pyridinium sulfate liposomes
Experimental: Liposome Leakage, Sedimentation Method. Liposome samples were diluted to 3-5 mL and left on an orbital shaker at 22° C. At specific time points, the liposomes were sedimented in a centrifuge at 300×g for 5 minutes and an aliquot of the clear supernatant was analyzed spectrophotometrically for drug and loading base content. After measurement, the solution was returned to the liposome suspension, which was vortexed and returned to the orbital shaker.
Then, 400 microliters of a pyridinium salt solution (prewarmed to 58° C.) were added to the lipid suspension. The mixture was kept at 58° C. for 5 minutes and then 100 microliters of the pyridinium salt solution were added. The mixture was cooled and diluted with 0.99% w/v sodium chloride. […] A total of three washes were performed. Naltrexone solution was then added in 150 mM citrate (pH 7.0) and the mixture was left to load for 48 hours. After loading, residual non-loaded naltrexone and released pyridine were removed by dilution with saline and sedimentation a total of three times. Naltrexone and pyridine content were measured spectroscopically. The samples were subsequently monitored for release of naltrexone using the sedimentation method. Two trials were performed for each condition.

## CN1CC[C@]23c4c5ccc(O)c4O[C@H]2C(=O)CC[C@H]3[C@H]1C5 [hydromorphone, reference compound]
Preparation containing the least drug (6 μmol)
  leakage profile: initial burst of leakage
Preparations other than 6 μmol
  steady release rate (as low as): ≥ 0.1 % per day

From patent US12059499B2, “Liposome loading” (PLUMB PHARMACEUTICALS, INC., priority 2015, dated 2024)
